Test results from publication PMC7821884, “BRAF inhibition protects against hearing loss in mice” (Science Advances, 2020).

Tests used:
P42 FVB mice [1] = test: Cisplatin-induced hearing loss in adult mice (ABR, OHC counts, pERK)
P42 FVB mice [2] = test: Noise-induced hearing loss in adult mice (ABR, DPOAE, Ctbp2 puncta, pERK)

**Q.** What does the source list for `CC(C)(C)c1nc(-c2cccc(NS(=O)(=O)c3c(F)cccc3F)c2F)c(-c2ccnc(N)n2)s1` [dabrafenib]?
**A.** average reduction of ABR threshold shift (P42 FVB mice [1]; 100 mg/kg oral gavage 45 min before and 24, 48 hours after cisplatin 30 mg/kg i.p., 16 and 32 kHz, day 21): 14.9 dB; threshold shift and body weight, drug alone (P42 FVB mice [1]; 100 mg/kg oral, no cisplatin): no significant threshold shift or change in body weight; mean reduction of ABR threshold shift, treatment after noise (P42 FVB mice [2]; 60 mg/kg twice daily oral at 24, 48, 72 hours after noise, 16 kHz): 21.0 dB; average protection, ABR threshold shift (P42 FVB mice [2]; 100 mg/kg oral 45 min before and 24, 48 hours after noise (100 dB, 8-16 kHz, 2 hours), three frequencies, day 14): 16.8 dB; DPOAE threshold shifts at 8 and 16 kHz (P42 FVB mice [2]; 100 mg/kg pretreatment): significant protection; threshold shift, body weight, behavior without noise exposure (P42 FVB mice [2]; drug-treated mice, no noise): no significant threshold shift, change in body weight, or general behavior
